Experimental data published in publication PMC11182288, “Effects of Netarsudil-Family Rho Kinase Inhibitors on Human Trabecular Meshwork Cell Contractility and Actin Remodeling Using a Bioengineered ECM Hydrogel” (Frontiers in Ophthalmology, 2022).

Amino acid sequences for entries named in this document (tags omitted). A change or cut given only in a name is not applied to a line headed by its entry.
UniProt O75116: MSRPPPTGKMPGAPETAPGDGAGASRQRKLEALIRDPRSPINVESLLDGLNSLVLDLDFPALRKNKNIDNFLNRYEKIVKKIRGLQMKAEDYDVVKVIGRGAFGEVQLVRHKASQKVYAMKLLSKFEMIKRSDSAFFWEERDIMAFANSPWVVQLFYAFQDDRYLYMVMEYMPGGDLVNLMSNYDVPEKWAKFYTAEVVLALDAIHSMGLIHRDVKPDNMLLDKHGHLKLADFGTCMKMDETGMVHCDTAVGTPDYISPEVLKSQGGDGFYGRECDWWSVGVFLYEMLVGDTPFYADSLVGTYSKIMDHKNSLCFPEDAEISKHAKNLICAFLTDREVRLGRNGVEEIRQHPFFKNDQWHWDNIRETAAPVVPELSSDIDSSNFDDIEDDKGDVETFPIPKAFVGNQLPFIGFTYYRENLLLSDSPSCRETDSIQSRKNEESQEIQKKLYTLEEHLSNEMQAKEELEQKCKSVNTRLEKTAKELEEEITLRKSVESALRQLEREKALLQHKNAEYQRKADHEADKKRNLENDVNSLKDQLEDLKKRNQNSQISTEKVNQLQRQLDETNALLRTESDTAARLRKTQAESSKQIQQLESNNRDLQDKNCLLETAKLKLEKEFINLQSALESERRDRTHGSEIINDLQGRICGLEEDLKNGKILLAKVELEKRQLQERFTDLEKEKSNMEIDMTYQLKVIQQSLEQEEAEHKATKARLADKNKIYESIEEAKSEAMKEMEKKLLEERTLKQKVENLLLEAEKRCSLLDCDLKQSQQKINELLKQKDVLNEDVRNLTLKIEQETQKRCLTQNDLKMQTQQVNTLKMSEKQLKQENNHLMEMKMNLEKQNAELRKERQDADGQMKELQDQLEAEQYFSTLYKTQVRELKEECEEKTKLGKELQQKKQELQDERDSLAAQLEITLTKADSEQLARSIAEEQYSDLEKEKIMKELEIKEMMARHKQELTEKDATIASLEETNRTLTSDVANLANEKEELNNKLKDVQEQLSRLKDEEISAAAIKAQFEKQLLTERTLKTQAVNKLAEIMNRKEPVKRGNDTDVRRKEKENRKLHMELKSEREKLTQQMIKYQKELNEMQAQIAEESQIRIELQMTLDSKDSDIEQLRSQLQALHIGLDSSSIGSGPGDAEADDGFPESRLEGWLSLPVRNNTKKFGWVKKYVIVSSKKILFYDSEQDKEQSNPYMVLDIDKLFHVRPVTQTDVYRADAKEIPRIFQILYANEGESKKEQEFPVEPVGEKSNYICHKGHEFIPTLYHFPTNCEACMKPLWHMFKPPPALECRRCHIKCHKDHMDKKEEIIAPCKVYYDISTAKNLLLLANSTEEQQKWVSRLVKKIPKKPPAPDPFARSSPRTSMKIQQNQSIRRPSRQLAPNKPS

Experiments:
[1] = system: HTM cell-encapsulated ECM hydrogels; assay: HTM hydrogel contraction analysis after TGFβ2 induction and ROCKi rescue; format: cell-based, human; conditions: 240 h
Experimental: HTM cells (1.0 × 10^6 cells/ml) were thoroughly mixed with MA-COL (3.6 mg/ml), SH-HA (0.5 mg/ml, 0.025% (w/v) photoinitiator) and SH-ELP (2.5 mg/ml) on ice ( Supplementary Figure 2A ), followed by pipetting 10 μl droplets of the HTM cell-laden hydrogel precursor solution onto polydimethylsiloxane-coated (PDMS; Sylgard 184; Dow Corning) 24-well culture plates ( Supplementary Figure 2B ), according to our established protocols ([32]–[34]). Alternatively, 30 µl droplets of the HTM cell-laden hydrogel precursor solution were pipetted onto Surfasil-coated (Fisher Scientific) 18 × 18-mm square glass coverslips followed by placing a regular 12-mm round glass coverslip onto the hydrogels to facilitate even spreading of the polymer solution. HTM hydrogels were crosslinked by exposure to UV light (OmniCure S1500 UV Spot Curing System; Excelitas Technologies, Mississauga, Ontario, Canada) at 320-500 nm, 2.2 W/cm^2 for 5 s. […]
Longitudinal brightfield images of HTM hydrogels subjected to the different treatments were acquired at 0 d and 10 d with an Eclipse Ti microscope (Nikon Instruments, Melville, NY, USA). Construct area was measured using Fiji software (National Institutes of Health (NIH), Bethesda, MD, USA) and normalized to 0 d followed by normalization to controls.

ROCK2 = molecular target: T1, ROCK2 (Homo sapiens, UniProt O75116); assay: ROCK2 protein kinase assay (Kinase-Glo Luminescent Kinase Assay); format: biochemical
T1 construct: purchased Invitrogen; Thermo Fisher Scientific
Experimental: Dose response analyses were conducted to establish IC50 values, which were converted to Ki values using the Cheng-Prusoff Equation Ki = IC50/(1 + ([ATP]/Km ATP).

[2] = system: F-actin stress fibers in hydrogel-encapsulated HTM cells; assay: HTM hydrogel immunocytochemistry, F-actin stress fibers; format: cell-based, human; conditions: 240 h
Experimental: Alternatively, 30 µl droplets of the HTM cell-laden hydrogel precursor solution were pipetted onto Surfasil-coated (Fisher Scientific) 18 × 18-mm square glass coverslips followed by placing a regular 12-mm round glass coverslip onto the hydrogels to facilitate even spreading of the polymer solution. HTM hydrogels were crosslinked by exposure to UV light (OmniCure S1500 UV Spot Curing System; Excelitas Technologies, Mississauga, Ontario, Canada) at 320-500 nm, 2.2 W/cm^2 for 5 s. The HTM hydrogel-adhered coverslips were removed with fine-tipped tweezers and placed hydrogel-side facing up in PDMS-coated 24-well culture plates ( Supplementary Figure 2C ).
Nuclei were counterstained with 4′,6′-diamidino-2-phenylindole (DAPI; Abcam). Coverslips were mounted with ProLong™ Gold Antifade (Invitrogen) on Superfrost™ microscope slides (Fisher Scientific), and fluorescent images were acquired with a Zeiss LSM 780 confocal microscope (Zeiss, Germany). […] Individual z-stacks consisted of 7 slices with the z-step interval set to […]. Fluorescence signal intensity of F-actin and αSMA were determined using Z-project maximum intensity projections in Fiji (NIH) with image background subtraction.

Compound: NC[C@@H](C(=O)Nc1ccc2cnccc2c1)c1ccc(COC(=O)c2ccccc2)cc1 [Compound A]
- Relative hydrogel size vs. controls [1]: ~ 78%
- Ki (ROCK2): 1.2 ± 0.3 nM
- Relative F-actin signal fold-change vs. controls [2]: ~ 1.7 fold-change
